The results in this text go back to PubChem BioAssay (Tox21).

Protein sequences, listed by entry. Tags and fused reporters are not part of them.
UniProt P22303, whole entry: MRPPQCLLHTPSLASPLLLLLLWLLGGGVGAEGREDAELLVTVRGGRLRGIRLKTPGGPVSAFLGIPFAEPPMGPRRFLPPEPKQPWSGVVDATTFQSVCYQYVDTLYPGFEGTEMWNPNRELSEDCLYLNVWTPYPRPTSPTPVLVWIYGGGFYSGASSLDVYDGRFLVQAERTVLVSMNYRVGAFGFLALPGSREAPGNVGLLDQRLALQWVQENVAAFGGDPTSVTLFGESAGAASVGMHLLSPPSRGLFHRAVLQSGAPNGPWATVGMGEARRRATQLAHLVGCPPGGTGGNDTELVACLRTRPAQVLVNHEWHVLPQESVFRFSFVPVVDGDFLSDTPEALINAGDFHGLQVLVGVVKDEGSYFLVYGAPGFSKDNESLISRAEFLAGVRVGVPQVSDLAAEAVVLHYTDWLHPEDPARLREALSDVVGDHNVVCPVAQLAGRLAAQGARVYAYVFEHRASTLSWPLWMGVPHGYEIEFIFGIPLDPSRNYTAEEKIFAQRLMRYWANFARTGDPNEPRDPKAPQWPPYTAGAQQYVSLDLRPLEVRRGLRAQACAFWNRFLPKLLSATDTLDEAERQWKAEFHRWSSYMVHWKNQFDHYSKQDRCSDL
UniProt O75469, whole entry: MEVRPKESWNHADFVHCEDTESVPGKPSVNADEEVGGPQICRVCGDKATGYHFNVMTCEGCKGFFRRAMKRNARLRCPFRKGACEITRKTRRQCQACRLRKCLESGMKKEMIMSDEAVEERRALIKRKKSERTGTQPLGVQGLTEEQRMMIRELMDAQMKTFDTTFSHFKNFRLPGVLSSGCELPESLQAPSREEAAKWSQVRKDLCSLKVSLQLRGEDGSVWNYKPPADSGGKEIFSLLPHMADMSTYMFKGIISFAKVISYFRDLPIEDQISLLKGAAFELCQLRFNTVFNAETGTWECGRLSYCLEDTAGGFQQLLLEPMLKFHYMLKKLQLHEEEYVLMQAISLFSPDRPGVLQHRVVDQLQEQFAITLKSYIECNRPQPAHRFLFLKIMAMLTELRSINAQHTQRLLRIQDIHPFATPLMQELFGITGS
UniProt P33261, whole entry: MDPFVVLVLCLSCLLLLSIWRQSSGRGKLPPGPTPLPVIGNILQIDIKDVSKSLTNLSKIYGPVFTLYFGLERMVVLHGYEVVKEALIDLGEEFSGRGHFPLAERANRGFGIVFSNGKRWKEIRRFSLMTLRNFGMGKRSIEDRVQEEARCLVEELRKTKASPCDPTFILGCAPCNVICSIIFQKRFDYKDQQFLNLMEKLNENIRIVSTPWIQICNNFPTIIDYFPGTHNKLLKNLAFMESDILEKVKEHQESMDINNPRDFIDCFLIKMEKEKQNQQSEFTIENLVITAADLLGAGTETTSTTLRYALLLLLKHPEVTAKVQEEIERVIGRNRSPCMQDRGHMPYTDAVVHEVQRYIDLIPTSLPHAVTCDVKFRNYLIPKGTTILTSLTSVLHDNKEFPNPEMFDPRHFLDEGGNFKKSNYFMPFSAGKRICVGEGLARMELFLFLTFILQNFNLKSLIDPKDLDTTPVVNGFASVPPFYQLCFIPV
UniProt P11712, whole entry: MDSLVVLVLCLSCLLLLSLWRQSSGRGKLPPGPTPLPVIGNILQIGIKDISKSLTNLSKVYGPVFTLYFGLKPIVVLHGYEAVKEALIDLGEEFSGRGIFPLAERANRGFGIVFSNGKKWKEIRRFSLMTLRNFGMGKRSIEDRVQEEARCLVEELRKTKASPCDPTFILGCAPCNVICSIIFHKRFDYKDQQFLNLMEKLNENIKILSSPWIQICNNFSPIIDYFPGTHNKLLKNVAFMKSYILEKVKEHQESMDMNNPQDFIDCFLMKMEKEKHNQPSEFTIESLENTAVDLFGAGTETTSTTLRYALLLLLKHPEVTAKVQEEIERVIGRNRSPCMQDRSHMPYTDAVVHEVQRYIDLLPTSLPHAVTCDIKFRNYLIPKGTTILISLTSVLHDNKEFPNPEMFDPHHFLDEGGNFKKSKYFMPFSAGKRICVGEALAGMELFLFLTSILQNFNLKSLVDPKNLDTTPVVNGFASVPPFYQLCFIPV
UniProt P05177, whole entry: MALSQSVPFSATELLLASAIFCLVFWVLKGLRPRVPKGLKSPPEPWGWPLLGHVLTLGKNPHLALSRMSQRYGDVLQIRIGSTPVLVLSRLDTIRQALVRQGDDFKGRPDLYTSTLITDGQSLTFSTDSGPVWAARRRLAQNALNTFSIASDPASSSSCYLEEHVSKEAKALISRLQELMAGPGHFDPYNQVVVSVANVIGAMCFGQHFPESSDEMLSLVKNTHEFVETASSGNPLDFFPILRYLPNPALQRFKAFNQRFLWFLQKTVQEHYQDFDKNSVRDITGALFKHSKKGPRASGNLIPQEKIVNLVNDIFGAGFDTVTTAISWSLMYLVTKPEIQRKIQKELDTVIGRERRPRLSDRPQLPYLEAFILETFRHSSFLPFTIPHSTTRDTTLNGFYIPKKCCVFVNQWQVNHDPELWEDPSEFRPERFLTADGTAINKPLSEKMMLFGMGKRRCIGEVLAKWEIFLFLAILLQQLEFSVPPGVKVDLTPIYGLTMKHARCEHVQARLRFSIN
UniProt Q12809, whole entry: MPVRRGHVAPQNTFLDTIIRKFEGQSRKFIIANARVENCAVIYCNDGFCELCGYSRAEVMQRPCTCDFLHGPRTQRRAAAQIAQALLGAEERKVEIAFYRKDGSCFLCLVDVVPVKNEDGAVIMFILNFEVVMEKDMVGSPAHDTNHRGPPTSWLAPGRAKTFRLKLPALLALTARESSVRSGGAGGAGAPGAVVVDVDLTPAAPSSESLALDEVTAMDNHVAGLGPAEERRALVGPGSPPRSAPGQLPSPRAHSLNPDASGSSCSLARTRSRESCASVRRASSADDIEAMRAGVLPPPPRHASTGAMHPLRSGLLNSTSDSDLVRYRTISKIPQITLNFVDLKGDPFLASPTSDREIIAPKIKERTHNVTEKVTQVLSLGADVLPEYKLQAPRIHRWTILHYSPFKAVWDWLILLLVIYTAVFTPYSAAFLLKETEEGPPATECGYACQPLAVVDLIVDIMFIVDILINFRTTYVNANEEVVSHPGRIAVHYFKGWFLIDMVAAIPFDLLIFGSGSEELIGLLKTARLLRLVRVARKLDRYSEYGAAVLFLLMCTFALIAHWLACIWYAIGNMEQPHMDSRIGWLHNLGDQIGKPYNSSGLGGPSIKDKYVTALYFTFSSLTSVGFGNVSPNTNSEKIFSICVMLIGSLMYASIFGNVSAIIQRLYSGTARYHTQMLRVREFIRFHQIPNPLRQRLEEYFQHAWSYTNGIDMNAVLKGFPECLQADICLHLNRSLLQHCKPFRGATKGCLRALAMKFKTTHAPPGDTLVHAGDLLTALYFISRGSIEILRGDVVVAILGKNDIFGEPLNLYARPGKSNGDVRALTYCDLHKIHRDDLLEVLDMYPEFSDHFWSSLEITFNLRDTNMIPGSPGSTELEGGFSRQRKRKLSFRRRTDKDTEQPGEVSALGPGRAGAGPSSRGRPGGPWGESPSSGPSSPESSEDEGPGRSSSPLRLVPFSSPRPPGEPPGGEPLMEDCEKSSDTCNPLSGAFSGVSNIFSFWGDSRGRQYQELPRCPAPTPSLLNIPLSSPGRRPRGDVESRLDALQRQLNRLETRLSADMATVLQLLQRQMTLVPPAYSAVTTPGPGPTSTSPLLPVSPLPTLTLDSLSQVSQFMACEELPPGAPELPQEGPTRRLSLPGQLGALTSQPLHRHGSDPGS
UniProt P08684, whole entry: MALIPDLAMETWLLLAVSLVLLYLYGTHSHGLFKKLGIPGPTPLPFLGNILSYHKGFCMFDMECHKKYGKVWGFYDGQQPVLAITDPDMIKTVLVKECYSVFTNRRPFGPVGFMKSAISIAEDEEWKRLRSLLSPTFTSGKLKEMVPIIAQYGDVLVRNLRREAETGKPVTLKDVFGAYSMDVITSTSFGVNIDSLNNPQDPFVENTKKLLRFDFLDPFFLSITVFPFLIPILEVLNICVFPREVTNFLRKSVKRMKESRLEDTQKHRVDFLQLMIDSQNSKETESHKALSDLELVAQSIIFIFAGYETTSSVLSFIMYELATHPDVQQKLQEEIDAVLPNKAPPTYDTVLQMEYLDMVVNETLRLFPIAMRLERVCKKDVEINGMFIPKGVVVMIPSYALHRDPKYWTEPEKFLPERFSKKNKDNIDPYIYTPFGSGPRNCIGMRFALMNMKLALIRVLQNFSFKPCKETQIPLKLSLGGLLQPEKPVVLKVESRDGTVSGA
UniProt P10635, whole entry: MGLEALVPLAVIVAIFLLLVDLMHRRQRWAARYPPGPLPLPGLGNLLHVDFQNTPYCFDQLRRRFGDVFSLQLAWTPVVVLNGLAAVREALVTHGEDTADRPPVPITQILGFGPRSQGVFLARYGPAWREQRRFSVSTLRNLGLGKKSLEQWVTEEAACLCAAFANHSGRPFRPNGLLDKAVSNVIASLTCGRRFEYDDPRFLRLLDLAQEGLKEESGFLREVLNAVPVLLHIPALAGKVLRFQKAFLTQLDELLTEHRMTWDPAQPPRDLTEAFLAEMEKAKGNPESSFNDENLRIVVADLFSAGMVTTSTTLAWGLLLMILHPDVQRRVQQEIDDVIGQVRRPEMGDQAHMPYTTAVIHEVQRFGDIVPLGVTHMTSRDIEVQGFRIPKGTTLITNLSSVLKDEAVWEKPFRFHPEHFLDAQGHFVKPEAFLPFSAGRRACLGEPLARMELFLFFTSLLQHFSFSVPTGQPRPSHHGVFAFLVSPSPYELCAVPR

SMILES strings stand for the structures. Several values for one entry are separate records, joined by “and”; a condition that tells them apart may be missing. Equal values may be shown once. This is a selection; strong and weak results do not stand in their true shares. Records with an inconclusive call do not appear. Activity calls are given as the source filed them. Unless noted, calls come from the whole dose curve; as a rule, active = well fitted curve in the direction sought with a large enough effect in the repeat runs; inconclusive = weak or mixed curves; inactive = no such curve, though single readings can be large; an effect the other way counts as inactive or inconclusive.

Assay [1] concerns the target Acetylcholinesterase (Homo sapiens) (UniProt P22303). Kind of assay: Acetylcholinesterase (AChE) small molecule antagonists: enzyme-based qHTS assay (AID 1347397; calls by dose curve; note: nearly all actives have a fitted effect of over 55% in size). The following applies: at 115 µM (top of the series) unless noted. The gist of the method: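 Compound or DMSO vehicle was pin-transferred onto recombinant human AChE (50 mU/mL as dispensed) and left 30 min at room temperature. Acetylthiocholine with DTNB then started the reaction, read colorimetrically 10 min later.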
(In general: qHTS replaces the single test concentration by a dilution series.)

Assay [2] can be described thus: Human pregnane X receptor (PXR) small molecule agonists, qHTS cell viability counter screen (AID 1346977). Note: nearly all actives have a fitted effect of over 50% in size. The following applies: PXR-Luc HepG2 viability, CellTiter-Fluor, 24 h; at 92.4 µM (top of the series) unless noted. A digest of the protocol: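 Tox21 qHTS format; PXR-Luc HepG2, 2,000/well, charcoal-stripped FBS 5%. Cpd exposure 24hr. Read: CellTiter-Fluor fluorescence, multiplexed with luciferase.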

Assay [3] is described as follows: Caspase-3/7 induction in HepG2 cells by small molecules, qHTS assay (AID 1346978). Note: nearly all actives have a fitted effect of over 15% in size. The following applies: HepG2 caspase-3/7 activation, Caspase-Glo luminescence, 17 h; at 92.4 µM (top of the series) unless noted. The gist of the method:
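Wild-type HepG2 cells (2,000/well) were settled 5 h at 37 C, 5% CO2, then exposed to compounds in DMSO for 17 h. Caspase-3/7 activity was read by luminescence 30 min after adding Caspase-Glo 3/7 reagent at room temperature.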

The nature of assay [4]: Caspase-3/7 induction in CHO-K1 cells by small molecules, qHTS cell viability counter screen (AID 1346979). Note: nearly all actives have a fitted effect of over 35% in size. The following applies: CellTiter-Fluor fluorescence, 17 h; at 92.4 µM (top of the series) unless noted. A digest of the protocol:
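CellTiter-Fluor viability check, qHTS format: wild-type CHO-K1, 16hr compound treatment, 1hr reagent incubation, fluorescence read.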

A short description of assay [5]: Caspase-3/7 induction in CHO-K1 cells by small molecules, qHTS assay (AID 1346980). Note: nearly all actives have a fitted effect of over 15% in size. The following applies: CHO-K1 caspase-3/7 induction, Caspase-Glo luminescence, 17 h; at 92.4 µM (top of the series) unless noted. The gist of the method: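 Wild-type cells were seeded at 1,500 per well and settled 5 hr at 37 C, 5% CO2, then exposed to DMSO-dissolved compounds for 17 hr. Caspase-Glo 3/7 reagent was added, and luminescence was read after 30min at room temperature.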

Assay [6] is described as follows: Caspase-3/7 induction in HepG2 cells by small molecules, qHTS cell viability counter screen (AID 1346981). Note: nearly all actives have a fitted effect of over 30% in size. The following applies: CellTiter-Fluor fluorescence, 17 h; at 92.4 µM (top of the series) unless noted. The gist of the method: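 CellTiter-Fluor fluorescence measured viability in the same wells used for Caspase-Glo 3/7. HepG2 (wild type) at 2,000 cells/well were pre-incubated 5 hr, dosed, and given reagent at 16 hr, with 1 hr further at 37C.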

Assay [7] has as its target Nuclear receptor subfamily 1 group I member 2 (Homo sapiens) (UniProt O75469). Kind of assay: Human pregnane X receptor (PXR) small molecule agonists, qHTS assay (AID 1346982). Note: nearly all actives have a fitted effect of over 35% in size. The following applies: PXR-Luc HepG2, CYP3A4 luciferase reporter, 24 h; at 92.4 µM (top of the series) unless noted. The gist of the method:
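Agonist mode: luminescence from ONE-Glo after 24 h compound exposure at 37C in HepG2 cells carrying hPXR-responsive CYP3A4 luciferase, plated in charcoal-stripped serum medium 5 h beforehand.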

Assay [8] deals with Cytochrome P450 2C19 (Homo sapiens) (UniProt P33261). In words: Cytochrome P450 Family 2 Subfamily C Member 19 (CYP2C19) small molecule antagonists: luciferase reporter qHTS assay (AID 1671197). Note: nearly all actives have a fitted effect of over 65% in size. The gist of the method:
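Quantitative high-throughput screen of the Tox21 library using CYP2C19 with proluciferin substrate. Reaction: NADPH regeneration, 37C, 1 h, after 10 min compound preincubation at room temperature. Readout: luminescence.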
A general note: In a reporter assay the amount or activity of a reporter protein is the signal.

Assay [9] deals with Cytochrome P450 2C9 (Homo sapiens) (UniProt P11712). In words: Cytochrome P450 Family 2 Subfamily C Member 9 (CYP2C9) small molecule antagonists: luciferase reporter qHTS assay (AID 1671198). Note: nearly all actives have a fitted effect of over 50% in size. The following applies: P450-Glo CYP2C9 enzyme assay, luciferin luminescence; at 115 µM (top of the series) unless noted. A digest of the protocol: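 CYP2C9 activity was measured with a P450-Glo proluciferin substrate. Enzyme–substrate mix was held with compound for 10 min at room temperature, then NADPH regeneration solution was added for 1 h at 37C. Luciferin product was read as luminescence.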

In assay [10] the target is Cytochrome P450 1A2 (Homo sapiens) (UniProt P05177). Kind of assay: Cytochrome P450 Family 1 Subfamily A Member 2 (CYP1A2) small molecule antagonists: luciferase reporter qHTS assay (AID 1671199). Note: nearly all actives have a fitted effect of over 50% in size. The following applies: P450-Glo CYP1A2 enzyme, luciferin luminescence, 1 h; at 115 µM (top of the series) unless noted.
Assay [11] addresses Voltage-gated inwardly rectifying potassium channel KCNH2 (Homo sapiens) (UniProt Q12809). In words: Human Ether-a-go-go-Related Gene (hERG) channel small molecule antagonists: fluorescence cell-based qHTS assay (AID 1671200).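 Note: hERG-expressing U2OS cells given a thallium stimulus after FluxOR II dye loading; nearly all actives have a fitted effect of over 50% in size.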 The following applies: hERG-U2OS cells, FluxOR thallium flux fluorescence; at 76.8 µM (top of the series) unless noted. A digest of the protocol:
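Kinetic two-minute fluorescence traces, sampled at 1 s, were collected following thallium stimulus of U2OS cells (1000 per well) that had been cultured overnight at 37 C and loaded with FluxOR II.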
On the technique in general: The hERG channel carries a current that helps repolarise heart muscle cells.

The target in assay [12] is Cytochrome P450 3A4 (Homo sapiens) (UniProt P08684). In words: Cytochrome P450 Family 3 Subfamily A Member 4 (CYP3A4) small molecule antagonists: luciferase reporter qHTS assay (AID 1671201). Note: nearly all actives have a fitted effect of over 50% in size. The following applies: P450-Glo CYP3A4 enzyme, luciferin luminescence, 1 h; at 115 µM (top of the series) unless noted. A digest of the protocol:
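Proluciferin-to-luciferin conversion by CYP3A4, NADPH-regenerated, 1 h RT; luminescence read as RLU. Ketoconazole as control.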

Assay [13] deals with Cytochrome P450 2D6 (Homo sapiens) (UniProt P10635). Kind of assay: Cytochrome P450 Family 2 Subfamily D Member 6 (CYP2D6) small molecule antagonists: luciferase reporter qHTS assay (AID 1671196). Note: nearly all actives have a fitted effect of over 50% in size. The gist of the method: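 CYP2D6 activity was followed as luminescence from its luciferin product after a 1 h NADPH-driven reaction at room temperature. Enzyme-substrate mix and compound were pre-incubated for 10 min, and the signal was read 20 min after adding detection reagent.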
% is set by controls: 0 for no effect and ±100 for the full control effect.

Take `Cc1ccc([N+](=O)[O-])cc1[N+](=O)[O-]`: in assay [1], the activity change, negative = inhibition is inactive: -5.14%.
On the same count and under the same terms, next, `N#CBr`: inactive: -0.0019%; `C/C1=C2N=C(/C=C3N=C(/C(C)=C4\[N-][C@@](C)([C@@H]5N=C1[C@](C)(CCC(=O)NC[C@@H](C)OP(=O)([O-])O[C@H]1[C@@H](O)[C@@H](n6cnc7cc(C)c(C)cc76)O[C@@H]1CO)[C@H]5CC(N)=O)[C@@](C)(CC(N)=O)[C@@H]4CCC(N)=O)[C@@](C)(CC(N)=O)[C@@H]\3CCC(N)=O)C(C)(C)[C@@H]/2CCC(N)=O.[C-]#N.[Co+3]`: inactive: -1.35% [at 53 µM].
Turning to `CCOP(=O)(Cl)Cl`, the activity change, negative = cytotoxicity in assay [2] was inactive: 1.66% and inactive: 3.53%; in assay [4], inactive: 9.96% and inactive: 8.65%; in assay [6] it was inactive: -1.93% and inactive: -1.99%. Moreover, in assay [3], the caspase activation is inactive: 0.513% and inactive: 0.295%. For the same compound, the caspase-3/7 activation in assay [5] was inactive: 0.134% and inactive: -0.934%. Further, the activation in assay [7] is inactive: -0.356% and inactive: -0.791%. Further, the activity change, negative = inhibition in assay [1] is inactive: 0% and inactive: 0.0687%; in assay [9] it was inactive: -28.9%; in assay [10], inactive: -19%; in assay [11] it was inactive: 11.2% and inactive: 1.17%; in assay [12], inactive: -3.37% and inactive: 0.926%. The Potency entry in [8] is “inactive”.
Turning to `N=C(N)N[N+](=O)[O-]`, the activity change, negative = inhibition in assay [1] is inactive: 0.545%.
On the same count and under the same terms, the result for `O=[N+]([O-])OCC(CO[N+](=O)[O-])(CO[N+](=O)[O-])CO[N+](=O)[O-]` reads inactive: 1.44%.
In the case of `CCN(CC)CCCl`, the activity change, negative = inhibition in assay [1] was inactive: 3.58%.
On the same count and under the same terms, the result for `CN(C)CCCl` reads inactive: 0.954%.
On the same count and under the same terms, the result for `COP(C)(=O)OC` reads inactive: 2.46% and inactive: 0.619%; that for `COc1ccc([N+](=O)[O-])cc1[N+](=O)[O-]`, inactive: -16.2%.
Same read-out and setting: next, `Nc1cc([N+](=O)[O-])cc([N+](=O)[O-])c1O`: inactive: 1.1%; `CP(=O)(O)OCCC[Si](O)(O)O`: inactive: 3.04%.
On to `O=[N+]([O-])c1ccccc1[N+](=O)[O-]`, for which the caspase activation in assay [3] is inactive: -0.92% and inactive: 0.189%. The caspase-3/7 activation in assay [5] was inactive: 0.595% and inactive: 0.0691%. In [6], the activity change, negative = cytotoxicity was inactive: -9.66% and inactive: -5.94%. The activation in assay [7] is inactive: 14.3% and inactive: -13.2%. Also, the activity change, negative = inhibition in assay [11] is inactive: 15.5% and inactive: 3.42%.
Regarding `O=[N+]([O-])[O-].[NH4+]`, the activity change, negative = inhibition in assay [1] was inactive: 0.417% and inactive: 0.138%.
For `CC(C)N(CCO)C(C)C`, the activity change, negative = inhibition in assay [1] was inactive: -0.886%.
In the case of `CCOP(=S)(Cl)OCC`, the results for the activity change, negative = cytotoxicity in assay [2], in assay [4] and in assay [6] were inactive: 16.8%, inactive: -14% and inactive: -2.73%, respectively. Moreover, the caspase activation in assay [3] was inactive: -0.869%. Moreover, in assay [5], the caspase-3/7 activation is inactive: -0.0532%. Further, the activation in assay [7] was inactive: 29.8%. In addition, in assay [11], the activity change, negative = inhibition was inactive: 6.03%.
Consider `Cc1ccc([N+](=O)[O-])c([N+](=O)[O-])c1`, for which the activity change, negative = inhibition in [1] is inactive: -0.994% and inactive: -4.41%.
Regarding `CC(C)OP(OC(C)C)OC(C)C`, the activity change, negative = cytotoxicity was inactive: -4.68% in [2] and inactive: -2.3% in assay [6]. Moreover, the caspase activation in assay [3] is inactive: 0.234%. Besides, in assay [5], the caspase-3/7 activation was inactive: 2.8%. Further, the activation in assay [7] was inactive: 9.31%. For the same compound, the activity change, negative = inhibition is inactive: 0.271% in [1]; inactive: 9.07% in assay [9]; inactive: -6.05% in assay [10]; inactive: 3.6% in assay [11]; inactive: 25.6% in assay [12]. Also, the Potency result in [13] and in assay [8] was “inactive” each time.
